Laboratory results reported in patent publication EP2710378B1, “METHOD TO PROGNOSE VIRAL INFECTION BY MEASURING T CELL RESPONSE OR AUTO-ANTIBODIES TO APOPTOTIC EPITOPES” (Università degli Studi di Roma "La Sapienza", priority 2011, dated 2012).

How the values were obtained:
A*0206 = A*0206 (Homo sapiens, UniProt P04439, D140Y/D185E/D98H/E176V/E277Q/F33Y/G131W/G231S/I119V/I121R/I166T/I218V/L300P/L318F/N151K/N90K/P208A/P217A/Q86G/Q94H/R138H/R169H/T345S); experiment: HLA-A2 binding affinity of synthetic peptides (A*0206); conditions: read-out: Binding capacity (IC50§ nM) A*0206; cells printed as dash
A*0201 = A*0201 (Homo sapiens, UniProt P04439, D140Y/D185E/D98H/E176V/E277Q/G131W/G231S/I119V/I121R/I166T/I218V/L300P/L318F/N151K/N90K/P208A/P217A/Q86G/Q94H/R138H/R169H/T345S); experiment: HLA-A2 binding affinity of synthetic peptides (A*0201); conditions: read-out: Binding capacity (IC50§ nM) A*0201; cells printed as dash
A*6802 = A*6802 (Homo sapiens, UniProt P04439, A269V/D140Y/D185E/E176V/E277Q/E87N/F33Y/G231S/I121R/I166T/I218V/L180W/L300P/L318F/N151K/P208A/P217A/Q86R/R138H/R169H/S129P/T345S/V36M); experiment: HLA-A2 binding affinity of synthetic peptides (A*6802); conditions: cells printed as dash; read-out: Binding capacity (IC50§ nM) A*6802
A*0203 = A*0203 (Homo sapiens, UniProt P04439, A173T/D140Y/D185E/D98H/E277Q/G131W/G231S/I119V/I121R/I166T/I218V/L180W/L300P/L318F/N151K/N90K/P208A/P217A/Q86G/Q94H/R138H/R169H/T345S); experiment: HLA-A2 binding affinity of synthetic peptides (A*0203); conditions: read-out: Binding capacity (IC50§ nM) A*0203; cells printed as dash
A*0202 = A*0202 (Homo sapiens, UniProt P04439, D140Y/D185E/D98H/E176V/E277Q/G131W/G231S/I119L/I121R/I166T/I218V/L180W/L300P/L318F/N151K/N90K/P208A/P217A/Q67R/Q86G/Q94H/R138H/R169H/T345S); experiment: HLA-A2 binding affinity of synthetic peptides (A*0202); conditions: read-out: Binding capacity (IC50§ nM) A*0202; cells printed as dash

Measured: IC50

CC[C@H](C)[C@H](NC(=O)[C@@H](NC(=O)[C@H](CCCNC(=N)N)NC(=O)[C@H](CC(=O)O)NC(=O)[C@H](CCC(=O)O)NC(=O)[C@H](CO)NC(=O)CNC(=O)[C@H](CCC(=O)O)NC(=O)[C@H](CC(C)C)NC(=O)[C@@H]1CCCN1)[C@@H](C)CC)C(=O)O [compound 26]
> 50000 nM: all assays above
